Measured values as given in article PMC5640506.

Assays:
K6 affimer = test: ITC; monomeric affimer 5 μM in cell, diUb 30 μM in syringe; 25°C; PBS (18 mM Na2HPO4, 7 mM NaH2PO4 pH 7.2, 150 mM NaCl)
K33 affimer = test: as above

| stoichiometry N (K6 affimer) | stoichiometry N (K33 affimer) | Substance |
| --- | --- | --- |
| 0.46 | – | K6-linked diUb (from UniProt P0CG47 1-76) |
| – | 0.44 | K33-linked diUb (from UniProt P0CG47 1-76) |
